Where “and” joins values, the source holds several entries; their conditions need not be identical. Equal entries are not always repeated. Only a part is listed here, and it is no random draw. Calls of active or inactive are those of the source.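 The calls were made as follows: active = z-score of at least 1.8 in each of two replicates, scored against plate mean and spread of sample wells; inactive = the rest.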

A short description of this experiment: viability rescue of complex I mutant cybrids, primary screen, cell-based, galactose medium, ATP luminescence (AID 1645843).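 Also: positive z means more ATP and so rescue of galactose-driven cybrid death.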 To be noted: complex I mutant cybrid cells, 72 h, stronger effect = higher value.
On to `CN(C(=O)Cc1ccc(Cl)c(Cl)c1)[C@@H]1CCCC[C@@H]1N1CCCC1`, for which the z-score is inactive: -0.63.
As for `CN(C(=O)Cc1ccc(Cl)c(Cl)c1)[C@H]1CCCC[C@@H]1N1CCCC1`, the figure is inactive: -0.595 and inactive: -0.755 and inactive: -0.78; as for `CN(C(=O)Cc1ccc(Cl)c(Cl)c1)[C@@H]1CCCC[C@H]1N1CCCC1`, inactive: -0.635.
As for `CN(C(=O)Cc1ccc(Cl)c(Cl)c1)[C@@H]1CC[C@]2(CCCO2)C[C@H]1N1CCCC1`, the figure is inactive: 0.34; as for `CN(C(=O)Cc1ccccc1)[C@@H]1CC[C@]2(CCCO2)C[C@H]1N1CCCC1`, inactive: -0.085.

(Values after PubChem BioAssay AID1645843 (ICCB-Longwood Screening Facility, Harvard Medical School, 2021).)
